The numbers were not newly measured in patent US20050003341A1, “Drug discovery assays based on the biology of atherosclerosis, cancer, and alopecia” (priority 2003, published 2005), which cites them from elsewhere.

Where two headings read alike, the source gives them in different places.

One series concerns AR mRNA. The conditions noted are these: 500 ng/ml, 60 minutes.

For FSH: follicle-stimulating hormone, the “AR mRNA” value in the series on AR mRNA is “increase”. In addition, the ERK phosphorylation result with ERK (Sertoli cells from 19-day-old rats, 100 ng/ml, 15 minutes) is “inhibition”; with ERK (oocytes and granulosa cells, dose dependent) it was “stimulates”.
